The list shows a part of the results, in another mix than the full data. Calls of active or inactive are those of the source. Rule as the data show it: active = growth inhibition above about 70%; inactive = the rest.
Key:
[1] = NCI Yeast Anticancer Drug Screen. Data for the rad50 strain (AID 155);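 also: 0% = growth of vehicle-only cultures of the same strain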; conditions: S. cerevisiae rad50 strain growth inhibition; at 50.0 µM; active compounds read high
[2] = NCI Yeast Anticancer Drug Screen. Data for the mec2-1 strain (AID 157); conditions: S. cerevisiae mec2-1 strain, at 50.0 µM, active compounds read high
[3] = NCI Yeast Anticancer Drug Screen. Data for the sgs1 mgt1 strain (AID 161);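 also: 0% = growth of cultures given vehicle only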; conditions: S. cerevisiae sgs1 mgt1 strain, at 50.0 µM, active compounds read high
[4] = NCI Yeast Anticancer Drug Screen. Data for the cln2 rad14 strain (AID 165);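 also: 0% = growth equal to vehicle treated cultures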; conditions: S. cerevisiae cln2 rad14 strain, at 50.0 µM, active compounds read high
[5] = NCI Yeast Anticancer Drug Screen. Data for the bub3 strain (AID 167); conditions: S. cerevisiae bub3 mutant strain, at 50.0 µM, active compounds read high
[6] = NCI Yeast Anticancer Drug Screen. Data for the mlh1 rad18 strain (AID 175); conditions: S. cerevisiae mlh1 rad18 strain growth inhibition; at 50.0 µM; active compounds read high

Structure (SMILES)	growth inhibition [1]	growth inhibition [2]	growth inhibition [3]	growth inhibition [4]	growth inhibition [5]	growth inhibition [6]
CCN(CC)CCOC(=O)C(O)(c1ccc(C)cc1)C1CCCCC1 (stereo not given)	inactive: 0.15%	inactive: 2.7%	inactive: -0.45%	inactive: -22.2%	inactive: 4.25%	inactive: 4.8%
O=C1c2cc([N+](=O)[O-])cc(Br)c2-c2c1cc([N+](=O)[O-])cc2[N+](=O)[O-].c1ccccc1	active: 96%	active: 98.3%	active: 97.8%	active: 95.3%	active: 95.3%	active: 98%
O=[N+]([O-])N1C2OC3OC2N([N+](=O)[O-])C2OC3OC21	inactive: -19.9%	inactive: -7.9%	inactive: -6%	inactive: 6.9%	inactive: -11.8%	inactive: -11.6%
CCN(CC)CCOC(=O)C(O)(c1ccccc1)c1ccc(C)cc1C (stereo not given)	inactive: 15%	inactive: -10%	inactive: -5.3%	inactive: -16.4%	inactive: -11.3%	inactive: 14%
Cc1ccc2ccc3cc4ccccc4cc3c2c1.O=C1c2cc([N+](=O)[O-])ccc2-c2c1cc([N+](=O)[O-])cc2[N+](=O)[O-]	inactive: -1%	inactive: 0.35%	inactive: 5.15%	inactive: -7.65%	inactive: -4.45%	inactive: 25.9%
CCC(C)NCC(C)O.O=[N+]([O-])c1cc([N+](=O)[O-])c(O)c([N+](=O)[O-])c1	inactive: 0.9%	inactive: 5.05%	inactive: -10.6%	inactive: -43.2%	inactive: -18.4%	inactive: 3.9%
O=[N+]([O-])C12C3C4C1C1CC4C4([N+](=O)[O-])C3CC2C14[N+](=O)[O-] (stereo not given)	inactive: -24.7%	inactive: -18.6%	inactive: -16.1%	inactive: 5.05%	inactive: -21.3%	inactive: -22.1%
O=C(NCCC(F)([N+](=O)[O-])[N+](=O)[O-])NCCC(F)([N+](=O)[O-])[N+](=O)[O-]	inactive: 49.5%	inactive: 28.1%	active: 73.9%	inactive: 43.1%	inactive: 42.1%	active: 73.8%
O=[N+]([O-])c1cc(Cc2cc([N+](=O)[O-])c(O)c([N+](=O)[O-])c2)cc([N+](=O)[O-])c1O	inactive: 43%	inactive: 9.3%	inactive: 18.6%	inactive: 4.35%	inactive: 1.8%	inactive: 30%
CN1CCC(O)(c2ccccc2)CC1.O=[N+]([O-])c1cc([N+](=O)[O-])c(O)c([N+](=O)[O-])c1	inactive: 40.1%	inactive: 17.7%	inactive: 3.35%	inactive: 5.9%	inactive: -1.45%	inactive: 37.8%
CCOP(=O)(CC)OCC	inactive: 22.2%	inactive: -17.3%	inactive: 17.2%	inactive: -10.1%	inactive: -3.15%	inactive: 12.7%
CC(C)CC(C)NCC(C)O.O=[N+]([O-])c1cc([N+](=O)[O-])c(O)c([N+](=O)[O-])c1	inactive: 47.3%	inactive: 17.7%	inactive: 38.1%	inactive: -0.25%	inactive: -1.15%	inactive: 19.6%
COP(C)(=O)c1ccc([N+](C)(C)C)cc1.O=[N+]([O-])c1cc([N+](=O)[O-])c([O-])c([N+](=O)[O-])c1	inactive: 9.25%	inactive: 6.7%	inactive: 11.8%	inactive: 8.2%	inactive: -1.7%	inactive: -10.1%
O=[N+]([O-])c1ccc(Nc2ccc([N+](=O)[O-])cc2[N+](=O)[O-])c([N+](=O)[O-])c1	inactive: -2.3%	inactive: -2.9%	inactive: -6.9%	inactive: -30.4%	inactive: 0.7%	inactive: -14.3%
Cc1cccc2ccccc12.O=[N+]([O-])c1cc([N+](=O)[O-])c(O)c([N+](=O)[O-])c1	inactive: 16.1%	inactive: 4.65%	inactive: 1.8%	inactive: -1.15%	inactive: 1.95%	inactive: -5.05%
CCCC[S+](N)(=O)CCC(N)P(=O)(O)O.O=[N+]([O-])c1cc([N+](=O)[O-])c([O-])c([N+](=O)[O-])c1	inactive: -11.8%	inactive: -7.1%	inactive: 1.6%	inactive: 7.1%	inactive: -17.4%	inactive: -1.9%
CCP1(=O)Nc2ccc(C)cc2N1 (stereo not given)	inactive: -4.8%	inactive: 13%	inactive: -11.4%	inactive: 27.2%	inactive: -21.6%	inactive: -12%
O=[N+]([O-])Nc1ccc(N[N+](=O)[O-])nn1	inactive: 0.95%	inactive: 8.85%	inactive: 11.6%	inactive: -32.9%	inactive: 7.05%	inactive: -14.7%

Structure (SMILES)	growth inhibition [1]	growth inhibition [2]	growth inhibition [3]	growth inhibition [4]	growth inhibition [5]	growth inhibition [6]
O=C1CC(CC([N+](=O)[O-])([N+](=O)[O-])[N+](=O)[O-])C(=O)O1 (stereo not given)	inactive: 4.4%	inactive: 4.9%	inactive: 1.05%	inactive: 0.95%	inactive: 3.45%	inactive: 5.05%
O=C(O)COCN(CN(CN(OCC(=O)O)[N+](=O)[O-])[N+](=O)[O-])[N+](=O)[O-]	inactive: 0%	inactive: 24%	inactive: 7.25%	inactive: 13.4%	inactive: 9.3%	inactive: 18.1%
Cc1ccc(C(=N)N)cc1.O=[N+]([O-])c1cc([N+](=O)[O-])c(O)c([N+](=O)[O-])c1	inactive: 17.1%	inactive: -2.25%	inactive: 8.95%	inactive: 14.2%	inactive: 0.05%	inactive: -4.55%
CCC([N+](=O)[O-])([N+](=O)[O-])[N+](=O)[O-]	inactive: 46.1%	inactive: 16.8%	inactive: 19.1%	inactive: 16.1%	inactive: 4.55%	inactive: 24.6%
CC(C)CC(CC(C)C)NCCCO.O=[N+]([O-])c1cc([N+](=O)[O-])c(O)c([N+](=O)[O-])c1	inactive: 26.8%	inactive: 0.65%	inactive: 20.2%	inactive: -22.8%	inactive: -1.65%	inactive: -11.7%
[N-]=[N+]=NC1(N=[N+]=[N-])C(=O)NC(=O)NC1=O	inactive: 5.8%	inactive: 2.8%	inactive: 2.55%	inactive: 12.8%	inactive: 9.3%	inactive: 0.4%
Cc1cc(=O)n(C)n1C.O=[N+]([O-])c1cc([N+](=O)[O-])c(O)c([N+](=O)[O-])c1	inactive: 17.6%	inactive: -8.75%	inactive: 6.05%	inactive: -30.1%	inactive: -9.5%	inactive: 13.7%
CCN(CC)CCOC(=O)C(O)(c1cccc(C)c1)c1csc2ccccc12 (stereo not given)	inactive: 3.65%	inactive: 8.35%	inactive: -11.7%	inactive: -19.9%	inactive: 5.2%	inactive: 18.4%
CCCN(CCC)C1C=CCCC1.O=[N+]([O-])c1cc([N+](=O)[O-])c(O)c([N+](=O)[O-])c1	inactive: -3.55%	inactive: 0.35%	inactive: -2.95%	inactive: -26.8%	inactive: -2.5%	inactive: -0.65%
CC(C)CCNC(C)(C)CO.O=[N+]([O-])c1cc([N+](=O)[O-])c(O)c([N+](=O)[O-])c1	inactive: 43.9%	inactive: 16.1%	inactive: 33.8%	inactive: -17.9%	inactive: -0.5%	inactive: 30.1%
CC(O)CNC1CCCC1.O=[N+]([O-])c1cc([N+](=O)[O-])c(O)c([N+](=O)[O-])c1	inactive: -7.15%	inactive: 9.6%	inactive: -0.8%	inactive: -45.8%	inactive: -5.95%	inactive: -4.25%
CCCCC(c1ccccc1)(C(C)C)N(C)C.O=[N+]([O-])c1cc([N+](=O)[O-])c(O)c([N+](=O)[O-])c1 (stereo not given)	inactive: 35.1%	inactive: 13.7%	inactive: 24.4%	inactive: 22.6%	inactive: 3.2%	inactive: 27.9%
CCCc1c(CC)c(=O)[nH]c2ccccc12	inactive: 29.6%	inactive: 13.8%	inactive: 40.1%	inactive: 25.2%	inactive: 8.5%	inactive: 39.1%
CCP1(=O)Nc2ccccc2N1	inactive: 27.1%	inactive: -8.95%	inactive: -1.65%	inactive: -61.9%	inactive: -1.55%	inactive: -1.1%
CC(C)(C)C1COP(C)(=S)OC1 (stereo not given)	inactive: -9.15%	inactive: -4.3%	inactive: -0.4%	inactive: -16.5%	inactive: 19.9%	inactive: -10.6%
C[S+](C)(C)=O.O=[N+]([O-])c1cc([N+](=O)[O-])c(S(=O)(=O)[O-])c([N+](=O)[O-])c1	inactive: 27.9%	inactive: 13.2%	inactive: 37.6%	inactive: 22.5%	inactive: 29.1%	inactive: 23.3%
Cc1cccc(N)c1.O=[N+]([O-])c1cc([N+](=O)[O-])c(O)c([N+](=O)[O-])c1	inactive: 14.2%	inactive: 16.2%	inactive: 16.1%	inactive: -3.65%	inactive: -3%	inactive: 21%
